These results are taken from ChEMBL document CHEMBL1134072, “Anodic oxidation of ifosfamide and cyclophosphamide: a biomimetic metabolism model of the oxazaphosphorinane anticancer drugs” (Bioorg Med Chem Lett, 2001).

This test in a line: In vitro cytotoxicity tested as inhibitory concentration against carcinoma KB cell line.

`CO[C@H]1CCOP(=O)(N(CCCl)CCCl)N1` (some centres not stated): the midpoint of inhibition, the IC50, lay at 16 µM.
Take `O=P1(N(CCCl)CCCl)NC(O)CCO1` (configuration not stated): half-maximal inhibition (IC50) was put at 10 µM.
